Measurements taken from US4113856A, “Antibiotic mm 13902” (Beecham Group Limited, priority 1974, dated 1978).

Test system: β-lactamase enzyme of Escherichia coli B11
Format: biochemical
Conditions: sodium salt, substantially pure
Description: This β-lactamase is classified as a type IIIa enzyme according to the classification of Richmond and Sykes [Adv. in Microbiol.Physiol. 9 31 (1973)]
The rate of β-lactamase hydrolysis of ampicillin to its penicilloic acid can be followed by a starch-iodometric assay in which one measures the rate of formation of penicilloic acid by following the decolorization of a starch-iodine complex. This method and the preparation of the β-lactamase are described in a paper by Cole M., Elson S., and Fullbrook P. D. (Biochemical Journal 1972, 127, 295-308). […] The procedure was as follows:
Buffer: 0.05M pH7 potassium phosphate buffer
Prepared from E.coli B11 as described by Cole
Enzyme: et al, Biochem. J.(1972) 127, 295. The dilution
The reactions were carried out in 1cm cuvettes at 37° C. in an SP 800 Pye Unicam spectrophotometer. This instrument can carry four sample cuvettes and their corresponding blanks. The first cuvette was used for the control reaction and contained no inhibitor. The 2nd, 3rd and 4th cuvettes were used for various dilutions of the inhibitor. Thus:
The reactions were followed by recording optical density change at 590 nm. and measuring the velocity of the reaction as optical density change per 100 secs. during the 3-6 minute time interval. The inhibitor sample was diluted until a dilution was reached which gave 50% of the rate of reaction seen in the no-inhibitor control.

## CC(=O)N/C=C/[S+]([O-])C1=C(C(=O)O)N2C(=O)C(C(C)OS(=O)(=O)O)C2C1 (stereo not shown) [MM 4550A]
  I50: less than 0.0001 μg/ml
